Read-outs that look alike come from different tables or passages of the source.
What was measured:
[1] = target: Bcl-2 (Homo sapiens, UniProt P10415); experiment: Bcl-2 binding affinity analysis (fluorescence polarization binding assay); conditions: read-out: Bcl-2 binding affinity Ki
Source text: (§1) Bcl-2 and Bcl-xL binding can be determined using a variety of known methods. One such assay is a sensitive and quantitative in vitro binding assay using fluorescence polarization (FP) described by Wang, J. -L.; Zhang, Z -J.; Choksi, S.; Sjam. S.; Lu, Z.; Croce, C. M.; Alnenri, E. S.; Komgold, R.; Huang, Z. Cell permeable Bcl-2 binding peptides: a chemical approach to apoptosis induction in tumor cells. Cancer Res. 2000, 60, 1498-1502).
(§2) Bcl-2 and Bcl-xL binding affinity analysis data is presented below for various compounds of the invention.

Chains of the proteins cited; added tags and fusions are not shown.
UniProt P10415, whole entry: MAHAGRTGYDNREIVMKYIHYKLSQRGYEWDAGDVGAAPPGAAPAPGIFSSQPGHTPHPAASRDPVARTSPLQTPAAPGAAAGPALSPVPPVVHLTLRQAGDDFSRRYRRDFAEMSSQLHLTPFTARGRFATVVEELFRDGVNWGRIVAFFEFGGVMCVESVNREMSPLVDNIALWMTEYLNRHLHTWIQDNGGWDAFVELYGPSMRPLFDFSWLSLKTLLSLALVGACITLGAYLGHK
UniProt Q07817, whole entry: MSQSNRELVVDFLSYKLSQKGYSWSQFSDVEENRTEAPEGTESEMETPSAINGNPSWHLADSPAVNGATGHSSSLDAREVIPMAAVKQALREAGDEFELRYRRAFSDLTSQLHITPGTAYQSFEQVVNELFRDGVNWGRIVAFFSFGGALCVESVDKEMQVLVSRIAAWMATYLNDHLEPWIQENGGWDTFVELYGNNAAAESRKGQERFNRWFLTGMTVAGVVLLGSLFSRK

[2] = target: Bcl-xL (Homo sapiens, UniProt Q07817); experiment: Bcl-xL binding affinity analysis (fluorescence polarization binding assay); design: scale not given here
Source text: as §1, §2

[3] = system: Human Pancreatic Cancer Cell Line Panc1; experiment: Cell death assay (propidium iodide/Hoechst) in Panc1 cells with or without camptothecin
Protocol: (§3) When RL-cells are exposed to isoxazolidine compounds of the present invention, the inhibitors show a dose-dependent cell-killing in the Alamar blue cytoxicity assay with IC50 values of from about 100 μM to about 1 μM (See Examples). When Panc1 cells are exposed to the isoxazolidine compounds of the present invention in combination with camptothecin, the inhibitors show a synergistic dose-dependent cell killing in the propidium iodide exclusion cell survival assay with IC50 values of from about 100 μM to about 1 μM (See Examples).
• 1) Compounds were serially diluted in DMSO from a 9 mM stock to a final concentration of 0.004 mM in a 96 well plate. • 2) Assay plates were prepared by diluting compounds 310 fold into 150 ul of medium containing 10,000 cells/well, with or without 3 uM Camptothecin, resulting in a final DMSO concentration of 0.3% and a compound concentration range from 29 uM to […] for each compound. • 3) Assay plates were incubated at 37 C, 5% CO2 for 72 hours. • 4) After 72 hours, propidium iodide and Hoechst dye were added to each well according to manufacturer's instruction. • 5) Plates were imaged on a fluorescence microscope at wavelengths Ex560/Em650 (Propidium iodide) and Ex360/Em465 (Hoechst) • 6) MetaMorph imaging software was used to determine % cell death by dividing the number of propidium iodide stained cells (dead cells) by the number of Hoechst stained cells (all cells), multipled by 100, in each field.
Panc1 invitro cellular data is presented below for various compounds of the invention.

[4] = system: RL Human Follicular Lymphoma Cell Line; experiment: Alamar blue cytotoxicity assay in RL cells; conditions: read-out: Bcl RL Alamar Blue IC50, 72 h incubation
Protocol: as §3
• 1) Using 96 well plates, compounds were serially diluted in DMSO from 9 mM to 4 uM • 2) Assay plates were prepared by diluting samples 310 fold into 150 ul of medium containing 30,000 cells/well resulting in a final DMSO concentration of 0.3% and a concentration range from 29 uM to 0.013 uM for each compound. • 3) Plates were incubated at 37 C and 5% CO2 for 72 h • 4) After 72 h, Alamar blue reagent was added to each well and plates read according to manufacturer's instructions
In vitro cytotoxicity data for RL cells is presented below for various compounds of the invention.

[5] = read-out: Panc1 + Cpt IC50, with 3 uM Camptothecin, 72 hours, % cell death by propidium iodide/Hoechst
[6] = read-out: Panc1 − Cpt IC50, without camptothecin, 72 hours, % cell death by propidium iodide/Hoechst

Row | Structure (SMILES) | Ki [1] | Bcl-XL binding affinity Ki [2] | IC50 [3, 5] | IC50 [3, 6] | IC50 [4]
1 | C[C@@H]1[C@@H](NC(=O)[C@@H]2C([C@H](C)O)[C@H](CO)ON2Cc2cccc(CN(CCN(C)C)CCN(C)C)c2)C[C@H]2C[C@@H]1C2(C)C (some centres unmarked) | < 800 nM | ♯ | – | – | –
2 | CCOc1c(CN2O[C@@H](CO)[C@H]([C@H](C)O)[C@H]2C(=O)N[C@H]2C[C@H]3C[C@@H]([C@@H]2C)C3(C)C)cccc1-c1cccc(C(=O)NC[C@@H]2CCCN2CC)c1 | < 800 nM | ♯ | > 2500 nM | > 2500 nM | –
3 | COc1c(CN2OC(CO)C(C(C)O)C2C(=O)NC2CC3CC(C2C)C3(C)C)cccc1-c1cccc(C(=O)NC(CC(C)C)CN(C)C)c1 (single isomer, unassigned) [485] | < 800 nM | ♯ | 1300 to 1800 nM | 1800 to 2500 nM | 2000 to 5000 nM
4 | C[C@@H]1[C@@H](NC(=O)[C@@H]2[C@H]([C@H](C)O)[C@H](CO)ON2Cc2cccc(CN(Cc3ccccc3Cl)[C@H](CN(C)C)C(C)(C)C)c2)C[C@H]2C[C@@H]1C2(C)C | < 800 nM | ♯ | > 2500 nM | > 2500 nM | –
5 | C[C@@H]1[C@@H](NC(=O)[C@@H]2[C@H]([C@H](C)O)[C@H](CO)ON2Cc2cccc(-c3ccc([S+](C)[O-])cc3)c2)C[C@H]2C[C@@H]1C2(C)C (some centres unmarked) | < 800 nM | ♯♯ | – | – | –
6 | CNC(=S)N1CCN(c2cccc(CN3O[C@@H](CO)[C@@H]([C@H](C)O)[C@H]3C(=O)N[C@H]3C[C@H]4C[C@@H]([C@@H]3C)C4(C)C)c2)CC1 | < 800 nM | ♯ | – | – | –
7 | C[C@@H]1[C@@H](NC(=O)[C@@H]2C([C@H](C)O)[C@H](CO)ON2Cc2cccc(CN(CCN(C)C)CC(C)(C)C)c2)C[C@H]2C[C@@H]1C2(C)C (some centres unmarked) | < 800 nM | ♯ | – | – | –
8 | C[C@@H]1[C@@H](NC(=O)[C@@H]2C([C@H](C)O)[C@H](CO)ON2Cc2cccc(CN(CCN(C)C)C3CCCCC3)c2)C[C@H]2C[C@@H]1C2(C)C (some centres unmarked) | < 800 nM | ♯ | – | – | –
9 | C[C@@H](O)[C@H]1[C@@H](CO)ON(Cc2cccc(C#CCNC(=O)c3ccccc3)c2)[C@H]1C(=O)N[C@@H]1CCN(Cc2ccccc2)C1 | 800 to 6000 nM | ♯ | – | – | –
10 | C[C@@H]1[C@@H](NC(=O)[C@@H]2[C@H]([C@H](C)O)[C@H](CO)ON2CCCCN(CCN(C)C)CC2CCCCC2)C[C@H]2C[C@@H]1C2(C)C [Compound 553] | 800 to 6000 nM | ♯ | – | – | –
11 | CC(C)C[C@@H](CN(C)C)NCc1cccc(CN2O[C@@H](CO)C([C@H](C)O)[C@H]2C(=O)N[C@H]2C[C@H]3C[C@@H]([C@@H]2C)C3(C)C)c1 (some centres unmarked) [Compound 552] | < 800 nM | ♯ | – | – | –
12 | CCN1CCC[C@H]1CNC(=O)c1cccc(-c2cccc(CN3O[C@@H](CO)[C@H]([C@H](C)O)[C@H]3C(=O)N[C@H]3C[C@H]4C[C@@H]([C@@H]3C)C4(C)C)c2OCC2CC2)c1 | < 800 nM | ♯ | > 2500 nM | > 2500 nM | –
13 | C[C@@H](O)[C@H]1[C@@H](CO)ON(Cc2cccc(C#CCNC(=O)c3ccccc3)c2)[C@H]1C(=O)NCCCN(C)c1ccccc1 | 800 to 6000 nM | ♯♯ | – | – | –
14 | C[C@@H]1[C@@H](NC(=O)[C@@H]2[C@H]([C@H](C)O)[C@H](CO)ON2Cc2cccc(CN(CCN(C)C)CC3CCOCC3)c2)C[C@H]2C[C@@H]1C2(C)C | < 800 nM | ♯ | – | – | –
15 | C[C@@H]1[C@@H](NC(=O)[C@@H]2C([C@H](C)O)[C@H](CO)ON2Cc2cccc(CN(CCN(C)C)Cc3ccccc3)c2)C[C@H]2C[C@@H]1C2(C)C (some centres unmarked) | < 800 nM | ♯ | – | – | –
16 | C[C@@H]1[C@@H](NC(=O)[C@@H]2[C@H]([C@H](C)O)[C@H](CO)ON2Cc2cccc(CN(CCN(C)C)Cc3ccc(N(C)C)cc3)c2)C[C@H]2C[C@@H]1C2(C)C | < 800 nM | ♯ | – | – | > 5000 nM

Row | Structure (SMILES) | Ki [1] | Bcl-XL binding affinity Ki [2] | IC50 [3, 5] | IC50 [3, 6] | IC50 [4]
17 | C[C@@H]1[C@@H](NC(=O)[C@@H]2C([C@H](C)O)[C@H](CO)ON2Cc2cccc(CN(CCCc3ccccc3)CCN(C)C)c2)C[C@H]2C[C@@H]1C2(C)C (some centres unmarked) | < 800 nM | ♯ | – | – | –
18 | C[C@@H]1[C@@H](NC(=O)[C@@H]2[C@H]([C@H](C)O)[C@H](CO)ON2Cc2cccc(CN(CCN(C)C)CC3CC4CCC3C4)c2)C[C@H]2C[C@@H]1C2(C)C (some centres unmarked) | < 800 nM | ♯ | – | – | 2000 to 5000 nM
19 | C[C@@H]1[C@@H](NC(=O)[C@@H]2[C@H]([C@H](C)O)[C@H](CO)ON2Cc2cccc(CN(CCN(C)C)Cc3cccc(C=O)c3)c2)C[C@H]2C[C@@H]1C2(C)C | < 800 nM | ♯ | – | – | –
20 | C[C@@H]1[C@@H](NC(=O)[C@@H]2[C@H]([C@H](C)O)[C@H](CO)ON2Cc2cccc(N(CCCc3ccccc3)CCCN(C)C)c2)C[C@H]2C[C@@H]1C2(C)C | < 800 nM | ♯ | > 2500 nM | > 2500 nM | 2000 to 5000 nM
21 | CC(c1cccc(-c2ccc(C(=O)N(C)C)cc2)c1)N1O[C@@H](CO)[C@@H]([C@H](C)O)[C@H]1C(=O)N[C@H]1C[C@H]2C[C@@H]([C@@H]1C)C2(C)C (single isomer, unassigned) | < 800 nM | ♯ | – | – | –
22 | C[C@@H]1[C@@H](NC(=O)[C@@H]2C([C@H](C)O)[C@H](CO)ON2Cc2cccc(CN(CCc3ccccc3)CCN(C)C)c2)C[C@H]2C[C@@H]1C2(C)C (some centres unmarked) | < 800 nM | ♯ | 1300 to 1800 nM | 1800 to 2500 nM | 2000 to 5000 nM
23 | CC(C)C[C@H](CN(C)C)NCc1cccc(CN2O[C@@H](CO)C([C@H](C)O)[C@H]2C(=O)N[C@H]2C[C@H]3C[C@@H]([C@@H]2C)C3(C)C)c1 (some centres unmarked) | < 800 nM | ♯ | – | – | –
24 | COc1c(CN2OC(CO)C(C(C)O)C2C(=O)NC2CC3CC(C2C)C3(C)C)cccc1-c1cccc(C(=O)NCCN(C)C)c1 (centres unmarked) | < 800 nM | ♯ | – | – | –
25 | C[C@@H]1[C@@H](NC(=O)[C@@H]2C([C@H](C)O)[C@H](CO)ON2Cc2cccc(CNCCN(C)C)c2)C[C@H]2C[C@@H]1C2(C)C (some centres unmarked) | < 800 nM | ♯ | – | – | –
26 | COc1c(CN2OC(CO)C(C(C)O)C2C(=O)NC2CC3CC(C2C)C3(C)C)cccc1-c1cccc(C(=O)NC(CC(C)C)CN(C)C)c1 (single isomer, unassigned) [478] | < 800 nM | ♯ | > 2500 nM | > 2500 nM | –
27 | CC[C@@H](C)[C@@H](CN(C)C)N(Cc1cccc(CN2O[C@@H](CO)[C@@H]([C@H](C)O)[C@H]2C(=O)N[C@H]2C[C@H]3C[C@@H]([C@@H]2C)C3(C)C)c1)Cc1ccccc1Cl | < 800 nM | ♯ | > 2500 nM | > 2500 nM | –
28 | C[C@@H]1[C@@H](NC(=O)[C@@H]2C([C@H](C)O)[C@H](CO)ON2Cc2cccc(CN(CCN(C)C)CCC(C)(C)C)c2)C[C@H]2C[C@@H]1C2(C)C (some centres unmarked) | < 800 nM | ♯ | – | – | –
29 | C[C@@H]1[C@@H](NC(=O)[C@@H]2C([C@H](C)O)[C@H](CO)ON2Cc2cccc(CN(CCN(C)C)CC3CCCCC3)c2)C[C@H]2C[C@@H]1C2(C)C (some centres unmarked) | < 800 nM | ♯ | – | – | –
30 | CC(C)[C@H](CN(C)C)N(Cc1ccccc1)Cc1cccc(CN2O[C@@H](CO)[C@@H]([C@H](C)O)[C@H]2C(=O)N[C@H]2C[C@H]3C[C@@H]([C@@H]2C)C3(C)C)c1 | < 800 nM | ♯ | > 2500 nM | > 2500 nM | > 5000 nM
31 | CCN1CCC[C@H]1CNC(=O)c1cccc(-c2cccc(CN3O[C@@H](CO)[C@H]([C@H](C)O)[C@H]3C(=O)N[C@H]3C[C@H]4C[C@@H]([C@@H]3C)C4(C)C)c2OC)c1 | < 800 nM | ♯ | – | – | –
